Compounds with a hit are over-represented: about 2.2% of the library has one in this group of screens.
Nrf2 ARE act: activates Nrf2 signaling; AREc32 ARE-luciferase reporter (MCF7-derived line), luminescence, 24 h; Potency, µM (highest dose often 46.1 µM), inactives show at the highest dose activation, most hits filed as activators; 410,000 compounds, 0.31% hits; AID 624171; also: potency is read from the fitted curve at half-maximal effect; % of control where 0% means no effect; nearly all actives have a fitted effect of over 65% in size
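ARE activation measured as luciferase luminescence (Steady-Glo, 30 min RT) in AREc32_Fluc cells after 24 hr compound exposure at 37 deg C, 5% CO2; cells seeded overnight at 1000/well in OPTI-MEM, 5% FBS.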
Nrf2 inh: blocks Nrf2 signaling; A549 ARE-Fluc reporter, luciferase luminescence, 18-24 h; Potency, µM (highest dose often 46 µM), without a hit: top-dose activity change, negative = inhibition, actives largely listed as inhibitors; 360,000 compounds, 2.1% hits; AID 504444; also: potency is read from the fitted curve at half-maximal effect; % is scaled to controls: 0 for no effect and ±100 for the full control effect; nearly all actives have a fitted effect of over 60% in size
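Reporter: ARE-Fluc in A549. Exposure: 18-24 h, 37 °C, 5% CO2, 5% FBS OPTI-MEM. Readouts: fluorescent cytotoxicity (CellTiter-Fluor), then luminescent Nrf2 signal after BugLite.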
B2AR arrestin: agonists driving beta-arrestin recruitment to human beta2-adrenergic receptor. P07550. beta-arrestin recruitment to beta2AR, cell-based reporter. Potency, µM (titrated, usually from 46.1 µM), for inactives: top-dose activation, hits mostly activators. 330,000 compounds, 0.02% hits;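 also: potency is read from the fitted curve at half-maximal effect; 0% = DMSO controls and full agonism = EC100 isoproterenol or metaproterenol; nearly all actives have a fitted effect of over 65% in size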
A549 viability: A549 cytotoxicity, counter-screen for Nrf2 inhibitors; 390,000 compounds, 0.16% hits; AID 504648; A549 ARE-Fluc cells, CellTiter-Fluor viability, 18-24 h; Potency, µM (series often up to 46 µM), inactives show at the top dose activity change, negative = cytotoxicity, most hits filed as inhibitors; also: potency is read from the fitted curve at half-maximal effect; % is scaled to controls: 0 for no effect and ±100 for the full control effect
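A549 ARE_Fluc cells in 5% FBS OPTI-MEM were exposed to compounds in concentration-response for 18-24 h at 37 deg C. Viability was read by CellTiter-Fluor fluorescence (Ex 405/Em 525) after 30 min, before the luciferase read.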
miR-21 reporter: miR-21 reporter, rising signal; Potency, µM (titrated, usually from 38.3 µM), without a hit: at the highest dose reporter change, positive = more light; AID 2288; 340,000 tested, under 10 active; HeLa miR-21 FLuc reporter, luciferase, 48 h; active = well fitted rising curve with a large enough effect; inconclusive = small, poorly fitted or top-dose-only effect; inactive = no such curve, though single readings can be large or run the other way;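 note: % of control where 0% means no effect; miR-21 action dims this reporter so a rising signal means less miR-21 action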
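Luminescence from a firefly luciferase reporter carrying a miR-21 binding site downstream, stably expressed under a CMV promoter in HeLa cells that make miR-21 endogenously, reports miRNA modulation after 48 h compound exposure up to approximately 40uM final.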
Active calls of the source: *; u = inconclusive; x = no result; [ ] = remark or other dose. Calls follow the shape of the dose curve; as a rule, active = well fitted curve in the direction sought with a large enough effect; inconclusive = small, poorly fitted or top-dose-only effect, or another doubt; inactive = no such curve, though single readings can be large; an effect the other way counts as inactive or inconclusive.

item	Compound	A549 viability	B2AR arrestin	miR-21 reporter
1	CC(=O)Nc1ccc(-c2csc(N/N=C(/C)c3ccccc3)n2)cc1	-4%	0%	-11%
2	CC(=O)Nc1ccc(-c2csc(Nc3ccc(Cl)cn3)n2)cc1	-18%	0%	1%
3	CC(=O)Nc1ccc(-c2csc(NNC(=O)c3ccccc3)n2)cc1	u	0%	-7%
4	CN(C)c1ccc(CNC(=O)c2sc3ncccc3c2-n2cccc2)cc1	-2%	x	-1%
5	Cc1ccc(C(=O)Nc2nc(-c3ccco3)c(-c3ccco3)s2)o1	-2%	0%	x
6	O=C(CCl)Nc1nc(-c2ccco2)c(-c2ccco2)s1	-4%	-1%	-1%
7	O=C1c2ccccc2C(=O)N1c1cccc(Cl)c1	-2%	x	x
8	Cc1cccc(C)c1NC(=O)CSc1nc(COc2ccccc2)nc2ccccc12	u	-1%	-8%
9	Cc1cccc(NC(=O)CSc2nc(COc3ccccc3)nc3ccccc23)c1C	u	0%	6%
10	Cc1ccc(C(c2nnnn2C2CCCCC2)N(C)C2CCCCC2)cc1 (centres undefined)	1%	0%	-5%
11	COc1ccc(/C=C/C(=O)c2ccc3c4c(cccc24)CC3)cc1	11%	-1%	-3%
12	COc1ccc(/C=C/C(=O)c2ccc3c4c(cccc24)CC3)cc1OC	-3%	0%	25%

item	Nrf2 inh	Nrf2 ARE act
1	9%	3%
2	15µM*	9%
3	13µM*	19%
4	x	0%
5	-7%	1.3µM*
6	-4%	11µM*
7	5%	x
8	3%	0%
9	26µM*	0%
10	26µM*	0%
11	u	u
12	18µM*	0%[9.22 µM]

New compounds follow:
item	Compound	A549 viability	B2AR arrestin	miR-21 reporter
13	Cc1ccc(S(=O)(=O)N2CCN(c3nc(-c4cncnc4)nc4ccccc34)CC2)cc1	-4%	x	x
14	CCc1nc(C)cn1S(=O)(=O)c1cc(Br)ccc1OC	u	-1%	-15%
15	O=C(Nc1ccccc1)c1ccc(-n2nncc2-c2ccccc2)cc1	-1%	x	x
16	CCOc1ccc(NC(=O)Cn2c(=O)cc(C)c3c(C)nn(C)c32)cc1	0%	x	4%
17	COc1ccc(NC(=O)Cn2c(=O)cc(C)c3c(C)nn(C)c32)cc1	-1%	x	6%
18	COc1ccc(OC)c(NC(=O)Cn2c(=O)cc(C)c3c(C)nn(-c4cccc(Cl)c4C)c32)c1	u	x	-1%
19	CSC1=N/C(=C\c2ccccc2)C(=O)N1C	-3%	0%	-11%
20	O=C(Nc1nc2ccccc2n1CCN1CCOCC1)c1cn(-c2ccccc2)nc1-c1ccccc1	u	0%	u
21	COc1cccc(NC(=O)c2c(N3CCCC3=O)c3cc(C)ccc3n2C)c1	0%	x	15%
22	CCS(=O)(=O)Nc1ccc(-c2cc(-c3ccccc3)c3cc(C)ccc3n2)cc1	u	-1%	-2%
23	O=C(O)Cc1nnc(-c2cc3ccccc3[nH]2)s1	-1%	x	x
24	COc1ccccc1OCCn1c(CCNC(=O)C2CCCCC2)nc2ccccc21	-2%	x	x

item	Nrf2 inh	Nrf2 ARE act
13	-9%	x
14	23µM*	0%
15	u	x
16	13µM*	1%
17	x	1%
18	21µM*	-1%
19	9%	11µM*
20	21µM*	0%
21	u	0%
22	23µM*	7%
23	u	x
24	-13%	x

Record cards (already shown). Order of screens: A549 viability, B2AR arrestin, miR-21 reporter, Nrf2 inh, Nrf2 ARE act
O=C1c2ccccc2C(=O)N1c1cccc(Cl)c1 is listed with -2%, x, x, 5%, x
COc1ccccc1OCCn1c(CCNC(=O)C2CCCCC2)nc2ccccc21 is listed with -2%, x, x, -13%, x
O=C(Nc1ccccc1)c1ccc(-n2nncc2-c2ccccc2)cc1 is listed with -1%, x, x, u, x
Cc1cccc(C)c1NC(=O)CSc1nc(COc2ccccc2)nc2ccccc12 is listed with u, -1%, -8%, 3%, 0%

Later entries.
item	Compound	A549 viability	B2AR arrestin	miR-21 reporter
25	Nc1nc(SCc2ccccc2Cl)nc2nc3c(cc12)CCCC3	3%	0%	-7%
26	Nc1nc(SCc2ccc(Cl)cc2Cl)nc2nc3c(cc12)CCCC3	-16%	0%	-14%
27	Cc1ccccc1NS(=O)(=O)c1ccc(C(=O)NCC(C)(C)N2CCOCC2)cc1	-7%	0%	x
28	CC(C)(CNC(=O)c1ccc(S(=O)(=O)Nc2ccccc2F)cc1)N1CCOCC1	2%	0%	x
29	Cc1ccc(C(=O)NCCc2ccc(Cl)cc2)cc1-n1c(C)nc2cccnc21	-4%	x	9%
30	CCN(Cc1nc2ccccc2c(=O)[nH]1)C(=O)c1cccc(NC(=O)c2cccs2)c1	0%	0%	x
31	CCN(Cc1nc2ccccc2c(=O)[nH]1)C(=O)c1ccc(C)c(NC(=O)c2ccco2)c1	-10%	0%	x
32	O=C(OCC#CCSc1nnc(-c2ccc(Cl)cc2)o1)c1ccc(F)cc1	1%	x	x
33	COc1ccc(NC(=O)/C(C#N)=C/c2c(C)nn(-c3ccc(F)cc3)c2Cl)cc1OC	-18%	2%	-5%
34	COc1ccc(C2=CC(c3ccc(F)cc3)n3nnnc3N2)cc1 (centres undefined)	5%	-1%	-14%
35	Fc1ccc(C2=CC(c3ccco3)n3nnnc3N2)cc1 (centres undefined)	-11%	-1%	0%
36	Cc1cc(/N=C/C=C2\N(C)c3ccccc3C2(C)C)n(CCC#N)n1	15µM*	-1%	18%

item	Nrf2 inh	Nrf2 ARE act
25	-20%	-1%
26	23µM*	4%
27	10µM*	0%
28	u	2%
29	-24%	-1%
30	-11%	8%
31	16µM*	2%
32	9%	x
33	u	16µM*
34	21%	6%
35	u	13µM*
36	u	1%

Following part
item	Compound	A549 viability	B2AR arrestin	miR-21 reporter
37	Cc1ccc(-c2cc3c(N4CCN(c5cc(C)ccc5C)CC4)nccn3n2)cc1	-12%	x	1%
38	CCOc1ccc(S(=O)(=O)NCc2ccco2)c2ccccc12	0%	0%	-18%
39	COCCCNC(=S)N1CCCN(c2nc3cc(C)ccc3cc2C#N)CC1	-12%	0%	5%
40	COCCCNC(=S)N1CCCN(c2nc3cc(C)c(C)cc3cc2C#N)CC1	-15%	0%	-4%
41	CCCCn1c(SCC(=O)c2ccccc2)nc2sc3c(c2c1=O)CCCC3	0%	x	-6%
42	CC1(C)CC(=O)C=C(C(=O)N2CCCC(C(=O)c3cccc(C(F)(F)F)c3)C2)O1 (centres undefined)	u	0%	2%
43	COc1ccc(CNS(=O)(=O)c2ccc(-n3cnnn3)c(C)c2)cc1	-1%	0%	-2%
44	CC(=O)c1ccc(OCCNS(=O)(=O)c2ccc(-n3cnnn3)c(C)c2)cc1	-8%	0%	12%
45	Cc1ccc(Cn2ncc3c(N4CCN(c5ccccc5C)CC4)ncnc32)cc1	u	0%	9%
46	COCCCNC(=S)NNC(=O)C1CC1c1ccc(C(C)(C)C)cc1 (centres undefined)	-2%	1%	9%
47	COCCNC(=S)NC(=O)c1ccc(C(C)(C)C)cc1	-1%	0%	-40%
48	N#CC1=C(N)N2C(=C(C#N)C1c1ccc(Br)cc1)Nc1ccccc12 (centres undefined)	u	0%	5%
49	N#CC1=C(N)N2C(=C(C#N)C1c1cccc(Br)c1)Nc1ccccc12 (centres undefined)	5%	0%	-7%
50	O=C(/C=C/c1ccco1)Nc1ccc(-c2nc3ccccc3[nH]2)cc1	23µM*	0%	-39%
51	O=C(Nc1ccc(-c2nc3ccccc3[nH]2)cc1)c1ccco1	-16%	0%	-46%

item	Nrf2 inh	Nrf2 ARE act
37	u	0%
38	5%	13µM*
39	16µM*	3%
40	u	2%
41	3%	-1%
42	9.2µM*	1%
43	-18%	0%
44	5.8µM*	0%
45	21µM*	-1%
46	21µM*	-1%
47	2%	6%
48	12µM*	-1%
49	-27%	4%
50	-5%	u
51	u	1%
